Melting point values, as collected for the OPERA models

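These are experimental values that the OPERA curators gathered from public databases to train and test their QSAR models. One number stands for a compound and property, with no spread given. How each value was measured is not recorded, so precision varies. Where a salt, mixture or single isomer is drawn, the source does not say that exactly this form was tested. Some upstream entries may be estimates or bounds without being marked so.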

Melting points are in °C. "via" names the databases from which the curators took the value.

| structure (SMILES) | melting point (°C) | via |
|---|---|---|
| O=C1Nc2ccc(S(=O)(=O)Cl)cc2C1(Cl)Cl | 135 | OCHEM |
| O=[N+]([O-])c1c(Cl)ccc2ncccc12 | 120 | OCHEM |
| CN1CC[C@@H](NC(=O)Nc2ccc(C#N)cc2)C[C@@H]1c1nc2ccccc2[nH]1 | 214 | PubChem |
| CC(C)NC(N)=O | 155 | OCHEM |
| CC1Oc2ccc(N)cc2NC1=O (stereo unspecified) | 199 | OCHEM |
| O=C(NCc1ccccc1)c1cccc(O)c1 | 141 | OCHEM |
| O=C(O)Cn1nc(O)ccc1=O | 236 | OCHEM |
| Cc1sc2nc(-c3ccccc3)nc(Cl)c2c1C | 158 | OCHEM |
| O=C(O)c1ccc2c(c1)C(=O)N(Cc1ccco1)C2=O | 174 | OCHEM |
| O=c1[nH]c2ccc(S(=O)(=O)Cl)cc2[nH]c1=O | 305 | OCHEM |
| Cc1ccc2nc(NCc3ccccc3)sc2c1 | 176 | OCHEM |
| O=C(O)CCNS(=O)(=O)c1ccccc1 | 112 | OCHEM |
| Cn1cc(C=O)c(=O)n(C)c1=O | 122 | OCHEM |
| Cc1sc2ncn(N)c(=O)c2c1C | 132 | OCHEM |
| O=C(O)C1(c2ccccc2)CCC1 | 106 | OCHEM |
| Nc1cccc(-c2nnco2)c1 | 67 | OCHEM |
| O=C(O)c1ccc(N2CCCC2=O)cc1 | 251 | OCHEM |
| Cc1sc(C(=O)O)cc1[N+](=O)[O-] | 98 | OCHEM |
| BrCCCCCCCCCCCBr | 166 | OCHEM |
| COc1ccc(NC(=O)c2ccc(N)cc2)cc1 | 188 | OCHEM |
| NS(=O)(=O)c1ccc(Cl)nc1 | 155 | OCHEM |
| C=CCCCCCCCCC(=O)N(CCO)CCO | -38 | eChemPortal |
| O=C(CCl)NC1C2CC3CC(C2)CC1C3 (stereo unspecified) | 120 | OCHEM |
| O=C(CCl)c1ccc2c(c1)CCC2 | 52.5 | OCHEM |
| COC(=O)c1c(N)sc(C)c1C | 125 | OCHEM |
| Cc1nn(-c2ccccc2)c(C)c1NC(=O)CCl | 150 | OCHEM |
| CCCCCCCCCCCCCC[N+](C)(C)[O-] | 127 | eChemPortal |
| O=C(O)CSc1ccccc1Cl | 116 | OCHEM |
| S=c1[nH]nc(Nc2ccccc2Cl)s1 | 175 | OCHEM |
| N#Cc1ccc(OCC(=O)O)cc1 | 178 | OCHEM |
| COc1ccc(C(=O)NC(C(=O)O)C(C)C)cc1 (stereo unspecified) | 164 | OCHEM |
| O=C1NC(=O)C(Cc2ccccc2)(Cc2ccccc2)N1 | 319 | OCHEM |
| Nc1nc(-c2c[nH]c3ccccc23)cs1 | 168 | OCHEM |
| CCCn1c(N)nc2ccccc21 | 115 | OCHEM |
| NC(C(=O)O)c1ccc(Cl)cc1Cl (stereo unspecified) | 216 | OCHEM |
| ClCc1nc(-c2ccccn2)no1 | 103 | OCHEM |
| CC(=O)c1ccc(OCCCC(=O)O)cc1 | 137 | OCHEM |
| CC(=O)O[C@H]1[C@H](O[Si](C)(C)C(C)(C)C)[C@@H](CO[Si](C)(C)C(C)(C)C)O[C@H]1n1cnc2c(N)ncnc21 | 195 | OCHEM |
| O=C(CCl)Nc1ccc(-c2ccccc2)cc1 | 122 | OCHEM |
| CCCCCCCCCCCCCCCCCC[N+](C)(C)[O-] | 130 | eChemPortal |
| CN(C)c1ccc(CCC(=O)O)cc1 | 106 | OCHEM |
| CCOc1ncc(C)c2c1C(c1ccc(C#N)cc1OC)C(C(=O)O)=C(C)N2 (stereo unspecified) | 157.6 | eChemPortal |
| Nn1c(-c2ccccc2Br)n[nH]c1=S | 189 | OCHEM |
| O=c1[nH]c(CCl)nc2sc3c(c12)CCC3 | 234 | OCHEM |

Extract of 6 entries:

structure (SMILES)	melting point (°C)	via
CN1CC[C@@H](NC(=O)Nc2ccc(C#N)cc2)C[C@@H]1c1nc2ccccc2[nH]1	214	PubChem
O=C(O)C1(c2ccccc2)CCC1	106	OCHEM
O=C(O)CSc1ccccc1Cl	116	OCHEM
COc1ccc(NC(=O)c2ccc(N)cc2)cc1	188	OCHEM
Cn1cc(C=O)c(=O)n(C)c1=O	122	OCHEM
COc1ccc(C(=O)NC(C(=O)O)C(C)C)cc1 (stereo unspecified)	164	OCHEM

Values as listed in the OPERA 2.9 repository of K. Mansouri.